Series [1] concerns the target hERG ion channel (Homo sapiens, UniProt Q12809). As to the kind of experiment: Population Patch Clamp (PPC) hERG assay in CHO K1 cells. It is filed as cell-based. Particulars: @ 10 μM; tested form: 2HCl; listed as Example 259 (also 262 and 263) of WO 2012/143726. (In general: Patch clamp records ionic current or voltage across a cell membrane.)
Series [2] deals with EVSA-T (human breast carcinoma). As to the kind of experiment: Anti-proliferative activity, Alamar Blue assay, EVSA-T. The class given is cell-based. Particulars: read-out: EVSA-T prolif, 72 hours compound, tested form: 2HCl. For orientation: Alamar Blue is a resazurin reagent that responds to reducing activity.

Sequences of proteins named here, by UniProt entry; tags and fusion partners are left off.
UniProt Q12809, whole entry: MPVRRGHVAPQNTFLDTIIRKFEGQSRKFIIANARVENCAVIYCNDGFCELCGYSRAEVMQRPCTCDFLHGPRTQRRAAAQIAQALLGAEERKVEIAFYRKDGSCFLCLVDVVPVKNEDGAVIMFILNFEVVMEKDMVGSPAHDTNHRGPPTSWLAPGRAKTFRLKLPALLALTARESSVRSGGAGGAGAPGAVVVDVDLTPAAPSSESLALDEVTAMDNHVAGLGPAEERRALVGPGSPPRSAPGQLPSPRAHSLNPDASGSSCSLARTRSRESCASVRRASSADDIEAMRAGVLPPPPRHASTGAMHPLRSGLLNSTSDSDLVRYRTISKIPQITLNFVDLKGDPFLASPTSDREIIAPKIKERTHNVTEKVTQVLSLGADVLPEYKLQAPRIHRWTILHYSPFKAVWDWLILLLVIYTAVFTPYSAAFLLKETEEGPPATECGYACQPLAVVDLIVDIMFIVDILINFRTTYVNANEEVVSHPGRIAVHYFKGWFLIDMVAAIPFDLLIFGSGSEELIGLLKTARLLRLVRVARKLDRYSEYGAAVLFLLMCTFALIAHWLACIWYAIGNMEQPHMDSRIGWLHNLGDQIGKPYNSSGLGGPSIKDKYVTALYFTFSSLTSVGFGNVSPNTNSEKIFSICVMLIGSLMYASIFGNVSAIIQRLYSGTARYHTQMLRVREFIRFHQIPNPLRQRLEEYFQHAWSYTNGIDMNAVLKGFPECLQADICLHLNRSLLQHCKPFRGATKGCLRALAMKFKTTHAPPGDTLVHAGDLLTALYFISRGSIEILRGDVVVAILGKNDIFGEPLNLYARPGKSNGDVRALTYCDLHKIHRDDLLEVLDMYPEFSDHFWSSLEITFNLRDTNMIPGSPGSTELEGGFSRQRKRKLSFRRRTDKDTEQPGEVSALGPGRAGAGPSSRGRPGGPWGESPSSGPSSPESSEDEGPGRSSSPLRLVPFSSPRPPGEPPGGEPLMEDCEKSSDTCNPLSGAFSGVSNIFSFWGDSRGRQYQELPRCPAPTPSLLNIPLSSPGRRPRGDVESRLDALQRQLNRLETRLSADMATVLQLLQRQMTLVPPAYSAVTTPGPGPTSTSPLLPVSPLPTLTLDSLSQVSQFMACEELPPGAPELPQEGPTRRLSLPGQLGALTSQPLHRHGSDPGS

The record followed here is patent publication US12202828B2, “Bicyclic heterocycle compounds and their uses in therapy” (ASTEX THERAPEUTICS LIMITED, priority 2013, dated 2025).

Molecules are shown by their SMILES. Several values for one entry are separate records, joined by “and”; a condition that tells them apart may be missing. Equal entries are not always repeated.

In the case of `C[C@@H]1CN(CC(=O)N2CC(C)(C)c3ncc(Cc4ccc(F)cc4)cc32)[C@@H](CN2CCOC[C@H]2C)CN1`, in series [1], the “hERG PPC (PI)” value is listed as 42%. For the same compound, in series [2], the EC50 was 0.82 nM and 0.83 nM.
